What was measured:
[1] = system: P37840; experiment: thioflavin T fluorescence + transmission electron microscopy; self-association into aggregates induced by ONE: 1.5 µL ONE (10 mg/mL) added to 50 µL monomer (2 mg/mL), 18 h at 37 °C, horizontal shaker; ThT read at 8 µM protein in 20 mM Tris pH 7.4, 0.15 M NaCl, 19 µM ThT, 37 °C; time course …; settings: other: thioflavin T fluorescence + transmission electron microscopy
[2] = system: P37840; experiment: thioflavin T fluorescence + transmission electron microscopy; self-association into preformed fibrils induced by agitation: 100 µL monomer (4 mg/mL), 37 °C, 1000 rpm, 7 days; ThT read at 8 µM protein in 20 mM Tris pH 7.4, 0.15 M NaCl, 19 µM ThT, 37 °C; time course 1, 3, 7 days; settings: other: thioflavin T fluorescence + transmission electron microscopy
[3] = system: P37840; experiment: SDS-PAGE and Western blot of aggregates (SDS stability); ONE-induced aggregates, 200 ng/lane, boiled at 95 °C for 5 min, 12% gel; species above 17 kD against the monomer band; settings: other: SDS-PAGE and Western blot of aggregates (SDS stability)
[4] = system: P37840; experiment: SDS-PAGE and Western blot of aggregates (SDS stability); agitation-induced preformed fibrils, 200 ng/lane, boiled at 95 °C for 5 min, 12% gel; species above 17 kD against the monomer band; settings: other: SDS-PAGE and Western blot of aggregates (SDS stability)

Row | Substance | p-α-syn aggregate speed (ratio to α-syn) [1] | p-α-syn aggregate speed (ratio to α-syn) [2] | SDS-Stability of aggregates (ratio to monomeric protein) (ratio to monomeric protein) [3] | SDS-Stability of aggregates (ratio to monomeric protein) (ratio to monomeric protein) [4]
1 | recombinant human α-synuclein phosphorylated at Ser129 | 1.409 ± 0.016 (18 h) | 1.497 ±0.111 (7Days) | 7.14 | 3.2
2 | recombinant human α-synuclein (wild type, full length) |  |  | 13.1 | 2.33

From article PMC11082957
